The test system of one experiment is A375 cells. Briefly: cells. As to conditions: Homo sapiens, A-375, 72 h, read-out: A375 XTT IC50 uM.
Experiment [1] concerns phospho-ERK1/2 in A375 cells. Briefly: cells. The conditions noted are these: Homo sapiens, A-375, 3 h, read-out: A375 ICW IC50.

Molecules are shown by their SMILES.

As usually defined, the IC50 is the midpoint of a concentration-inhibition curve.

For the compound `Cc1nc2cnc3cc(F)c(-c4ccc(Oc5cc(=O)n(C)cn5)cc4Cl)cc3c2n1C1CCN(C(=O)CO)CC1` [Example 72, 6-(3-chloro-4-(7-fluoro-1-(1-(2-hydroxyacetyl)piperidin-4-yl)-2-methyl-1H-imidazo[4,5-c]quinolin-8-yl)phenoxy)-3-methylpyrimidin-4(3H)-one], the concentration for half-maximal inhibition (IC50) with A375 cells is 0.623 µM; in experiment [1], 197 nM.
As for `Cc1nc2cnc3cc(F)c(-c4ccc(Oc5cccn(C)c5=O)cc4Cl)cc3c2n1C1CCN(C(N)=O)CC1` [Example 73, 4-(8-(2-chloro-4-((1-methyl-2-oxo-1,2-dihydropyridin-3-yl)oxy)phenyl)-7-fluoro-2-methyl-1H-imidazo[4,5-c]quinolin-1-yl)piperidine-1-carboxamide], the values for the IC50 (with A375 cells; in experiment [1]) were 0.254 µM and 175 nM, respectively.
Taken in the same sequence, the figures for `Cc1nc2cnc3cc(F)c(-c4ccc(Oc5cc(=O)n(C)cn5)cc4Cl)cc3c2n1C1CCN(C(N)=O)CC1` [Example 74, 4-(8-(2-chloro-4-((1-methyl-6-oxo-1,6-dihydropyrimidin-4-yl)oxy)phenyl)-7-fluoro-2-methyl-1H-imidazo[4,5-c]quinolin-1-yl)piperidine-1-carboxamide] were 3.64 µM and 1550 nM.
Taken in the same sequence, the figures for `Cn1cccc(Oc2ccc(-c3cc4c(cc3F)ncc3ncn(C5(C)CCN(C(N)=O)CC5)c34)c(Cl)c2)c1=O` [Example 75, 4-(8-(2-chloro-4-((1-methyl-2-oxo-1,2-dihydropyridin-3-yl)oxy)phenyl)-7-fluoro-1H-imidazo[4,5-c]quinolin-1-yl)-4-methylpiperidine-1-carboxamide] were 0.194 µM and 259 nM.
With `Cc1ccnc(Oc2ccc(-c3cc4c(cc3F)ncc3nc(C)n(C5CCN(C(N)=O)CC5)c34)c(C)c2)n1` [Example 76, 4-(7-fluoro-2-methyl-8-(2-methyl-4-((4-methylpyrimidin-2-yl)oxy)phenyl)-1H-imidazo[4,5-c]quinolin-1-yl)piperidine-1-carboxamide], the IC50 with A375 cells was determined as 0.013 µM; in experiment [1], 22 nM.
Taken in the same sequence, the figures for `Cc1ccnc(Oc2ccc(-c3cc4c(cc3F)ncc3nc(C)n(C5CCN(C(=O)CO)CC5)c34)c(C)c2)n1` [Example 77, 1-(4-(7-fluoro-2-methyl-8-(2-methyl-4-((4-methylpyrimidin-2-yl)oxy)phenyl)-1H-imidazo[4,5-c]quinolin-1-yl)piperidin-1-yl)-2-hydroxyethanone] were 0.09 µM and 65 nM.
Taken in the same sequence, the figures for `Cc1ccnc(Oc2ccc(-c3cc4c(cc3F)ncc3ncn(C5(C)CCN(C(N)=O)CC5)c34)c(F)c2)n1` [Example 79, 4-(7-fluoro-8-(2-fluoro-4-((4-methylpyrimidin-2-yl)oxy)phenyl)-1H-imidazo[4,5-c]quinolin-1-yl)-4-methylpiperidine-1-carboxamide] were 0.0056 µM and 7 nM.
The matching figures for `CC1(n2cnc3cnc4cc(F)c(-c5ccc(Oc6ncccn6)cc5F)cc4c32)CCN(C(N)=O)CC1` [Example 80, 4-(7-fluoro-8-(2-fluoro-4-(pyrimidin-2-yloxy)phenyl)-1H-imidazo[4,5-c]quinolin-1-yl)-4-methylpiperidine-1-carboxamide]: 0.08 µM and 60 nM.
`Cc1nc2cnc3cc(F)c(-c4ccc(Oc5cccn(C)c5=O)cc4Cl)cc3c2n1C1CCN(C(=O)[C@H](C)O)CC1` [Example 81, (S)-3-(3-chloro-4-(7-fluoro-1-(1-(2-hydroxypropanoyl)piperidin-4-yl)-2-methyl-1H-imidazo[4,5-c]quinolin-8-yl)phenoxy)-1-methylpyridin-2(1H)-one]: the concentration for half-maximal inhibition (IC50) was 1.15 µM in the experiment on A375 cells and 381 nM in experiment [1].
For the compound `Cc1nc2cnc3cc(F)c(-c4ccc(Oc5nccn(C)c5=O)cc4Cl)cc3c2n1C1CCN(C(N)=O)CC1` [Example 82, 4-(8-(2-chloro-4-((4-methyl-3-oxo-3,4-dihydropyrazin-2-yl)oxy)phenyl)-7-fluoro-2-methyl-1H-imidazo[4,5-c]quinolin-1-yl)piperidine-1-carboxamide], the IC50 is 2.33 µM with A375 cells and 2180 nM in experiment [1].
For `Cc1ccnc(Oc2ccc(-c3cc4c(cc3F)ncc3ncn(C5(C)CCN(C(=O)CO)CC5)c34)c(F)c2)n1` [Example 83, 1-(4-(7-fluoro-8-(2-fluoro-4-((4-methylpyrimidin-2-yl)oxy)phenyl)-1H-imidazo[4,5-c]quinolin-1-yl)-4-methylpiperidin-1-yl)-2-hydroxyethanone], the IC50 came out at 0.301 µM in the experiment with A375 cells and 88 nM in experiment [1].
The matching figures for `Cc1nc2cnc3cc(F)c(-c4ccc(Oc5ncccn5)cc4Cl)cc3c2n1C1CCN(CC#N)CC1` [Example 84, 2-(4-(8-(2-chloro-4-(pyrimidin-2-yloxy)phenyl)-7-fluoro-2-methyl-1H-imidazo[4,5-c]quinolin-1-yl)piperidin-1-yl)acetonitrile]: 0.225 µM and 58 nM.
Taken in the same sequence, the figures for `Cc1nc2cnc3cc(F)c(-c4ccc(Oc5ncccn5)cc4Cl)cc3c2n1[C@H]1CCN(CC#N)C[C@@H]1F` [Example 85, 2-((3S,4S)-4-(8-(2-chloro-4-(pyrimidin-2-yloxy)phenyl)-7-fluoro-2-methyl-1H-imidazo[4,5-c]quinolin-1-yl)-3-fluoropiperidin-1-yl)acetonitrile] were 0.021 µM and 16 nM.
The matching figures for `Cc1nc2cnc3cc(F)c(-c4ccc(Oc5ncccn5)cc4Cl)cc3c2n1[C@H]1CCN(C(=O)C2CCO2)C[C@@H]1F` (stereo partly drawn) [Example 86, ((3S,4S)-4-(8-(2-chloro-4-(pyrimidin-2-yloxy)phenyl)-7-fluoro-2-methyl-1H-imidazo[4,5-c]quinolin-1-yl)-3-fluoropiperidin-1-yl)(oxetan-2-yl)methanone]: 0.175 µM and 176 nM.
Consider `COc1ncnc(Oc2ccc(-c3cc4c(cc3F)ncc3nc(C)n([C@H]5CCN(C(=O)CO)C[C@@H]5F)c34)c(Cl)c2)n1` [Example 99, 1-((3S,4S)-4-(8-(2-chloro-4-((4-methoxy-1,3,5-triazin-2-yl)oxy)phenyl)-7-fluoro-2-methyl-1H-imidazo[4,5-c]quinolin-1-yl)-3-fluoropiperidin-1-yl)-2-hydroxyethanone], for which the IC50 in the experiment on A375 cells worked out at 0.531 µM; in experiment [1], 35 nM.

These data come from patent US10011599B2 (priority 2013, dated 2018).
